Source: patent US11874276B2, “STING levels as a biomarker for cancer immunotherapy” (Dana-Farber Cancer Institute, Inc., priority 2018, dated 2024)

Tested on: H69AR cells, SPARCS high cell lines
Assay: IFN pulse-chase of SCLC and other cancer cell lines; qRT-PCR, immunoblot
Assay type: cell-based, human
Conditions: 10 min pulse with chase
Procedure: For IFN pulse experiments, cells were pulsed 10 minutes with IFN-γ 200 ng/mL or 10 ng/mL), IFN-α 10 000 U/mL), or IFN-β 10 000 U/mL), extensively washed, and chased in fresh media for an additional 24, 48 or 72 hours. To test drug effects on gene expression or protein secretion, IFN-γ pulsed H69AR cells were treated with DMSO, 1 μM MRT67307 or 100 nM Ruxolitinib for 24, 48 and 72 hours.
Protein was isolated from cell lines and measured by BCA (Pierce Biotechnology). […]
Total cellular RNA was extracted using the miRNeasy Mini Kit (Qiagen, Hilden, Germany) according to manufacturer's instructions. […] Quantitative reverse transcription PCR (qRT-PCR) of the indicated genes was performed using SYBR green PCR Master Mix (Applied Biosystems, Foster City, CA) and the Applied Biosystems 7300 Fast real-time PCR system and software. […]

B1: IFNβ: Recombinant human IFN-β protein from R&D Systems (protein, UniProt P01574 22-187, looked up)
Interferon beta: MSYNLLGFLQRSSNFQCQKLLWQLNGRLEYCLKDRMNFDIPEEIKQLQQFQKEDAALTIYEMLQNIFAIFRQDSSSTGWNETIVENLLANVYHQINHLKTVLEEKLEKEDFTRGKLMSSLHLKRYYGRILHYLKAKEYSHCAWTIVRVEILRNFYFINRLTGYLRN
SPARCS upregulation (MLT1C49, MLT1A): SPARCS upregulation
